This test has as its target hURAT1 (Homo sapiens (Human), UniProt Q96S37). Briefly: URAT1 (urate anion transporter) inhibition activity assay: [8-14C] uric acid absorption inhibition in HEK293T cell line stably expressing hURAT1. Type of test: cell-based. Particulars: [8-14C] uric acid uptake, HEK293T cells stably expressing hURAT1.

The chains behind the UniProt entries cited, without tags or fusion partners. Where a name states a change or a piece, a line headed by the entry shows the natural chain unless it says otherwise.
UniProt Q96S37: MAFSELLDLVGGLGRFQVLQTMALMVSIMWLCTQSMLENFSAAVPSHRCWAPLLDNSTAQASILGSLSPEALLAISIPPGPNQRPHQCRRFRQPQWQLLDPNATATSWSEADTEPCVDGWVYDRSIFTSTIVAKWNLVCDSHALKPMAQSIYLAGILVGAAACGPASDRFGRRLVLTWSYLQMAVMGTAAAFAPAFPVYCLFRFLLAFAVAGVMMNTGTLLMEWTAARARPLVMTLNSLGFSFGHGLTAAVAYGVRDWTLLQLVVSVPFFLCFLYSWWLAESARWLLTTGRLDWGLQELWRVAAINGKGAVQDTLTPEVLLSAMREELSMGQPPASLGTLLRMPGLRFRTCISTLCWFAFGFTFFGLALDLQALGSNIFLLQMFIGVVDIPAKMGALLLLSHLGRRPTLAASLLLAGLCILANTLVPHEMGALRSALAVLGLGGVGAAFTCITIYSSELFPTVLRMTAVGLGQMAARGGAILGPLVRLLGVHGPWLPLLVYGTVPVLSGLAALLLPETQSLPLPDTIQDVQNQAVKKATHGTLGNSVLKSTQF

Drawing on US10266496B2, “Carboxy substituted (hetero) aromatic ring derivatives and preparation method and uses thereof” (SUNSHINE LAKE PHARMA CO., LTD., priority 2015, dated 2019), this text covers IC50 for one molecule.

Regarding `N#Cc1cc(-c2ccc(C(=O)O)c(O)c2)c2cc(F)sc2c1` [Example 30, 4-(6-cyano-2-fluorobenzo[b]thiophen-4-yl)-2-hydroxybenzoic Acid], the IC50 was determined as 15 nM.

For orientation: IC50 means the concentration that gives 50% inhibition. Lower therefore signals higher potency.
